Data from PubChem BioAssay (NCI).
The list shows a part of the results, in another mix than the full data.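 A percent growth of 40 corresponds to 60% growth inhibition; 0 means no net growth; -100 means all cells died. Active threshold: below 10.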 Activity calls are given as the source filed them.

Experiments:
Assay in all cases: NCI-60 one-dose screen, 48 h (100 = growth as untreated, 0 = no growth, -100 = all killed)
Conditions in all cases: 10 µM unless noted
NCI-H23 lung = tested on: NCI-H23 lung
NCI-H226 lung = tested on: NCI-H226 lung
NCI-H322M lung = tested on: NCI-H322M lung
HOP-62 NSCLC = tested on: HOP-62 NSCLC
NCI-H460 lung = tested on: NCI-H460 lung
HOP-92 NSCLC = tested on: HOP-92 NSCLC
NCI-H522 lung = tested on: NCI-H522 lung
A549/ATCC NSCLC = tested on: A549/ATCC NSCLC
786-0 renal = tested on: 786-0 renal
COLO 205 colon = tested on: COLO 205 colon
DU-145 prostate = tested on: DU-145 prostate
K-562 leukemia = tested on: K-562 leukemia
MALME-3M melanoma = tested on: MALME-3M melanoma
MDA-MB-231 breast = tested on: MDA-MB-231 breast
RXF 393 renal = tested on: RXF 393 renal
SF-268 CNS = tested on: SF-268 CNS
SF-295 CNS = tested on: SF-295 CNS
SF-539 CNS = tested on: SF-539 CNS
UACC-257 melanoma = tested on: UACC-257 melanoma
M14 melanoma = tested on: M14 melanoma

Measured: growth

CN(CCCl)/N=N/c1nc2c([nH]1)c(=O)n(C)c(=O)n2C
inactive: NCI-H23 lung 94.9% | NCI-H226 lung 106% | NCI-H322M lung 96.7% | HOP-62 NSCLC 88.5% | NCI-H460 lung 111% | HOP-92 NSCLC 106% | NCI-H522 lung 77.2% | A549/ATCC NSCLC 98.5% | 786-0 renal 85.9% | COLO 205 colon 105% | DU-145 prostate 110% | K-562 leukemia 89.4% | MALME-3M melanoma 97% | MDA-MB-231 breast 108% | RXF 393 renal 136% | SF-268 CNS 103% | SF-295 CNS 98.2% | SF-539 CNS 87.3% | UACC-257 melanoma 104% | M14 melanoma 93.4%

O=[N+]([O-])N1CCCS1(=O)=O
inactive: NCI-H23 lung 98.9% | NCI-H226 lung 103% | NCI-H322M lung 98.9% | HOP-62 NSCLC 96.1% | NCI-H460 lung 103% | HOP-92 NSCLC 91% | NCI-H522 lung 92.3% | A549/ATCC NSCLC 96.2% | 786-0 renal 104% | COLO 205 colon 107% | DU-145 prostate 108% | K-562 leukemia 95.8% | MALME-3M melanoma 98.4% | MDA-MB-231 breast 115% | RXF 393 renal 110% | SF-268 CNS 89.7% | SF-295 CNS 105% | SF-539 CNS 102% | UACC-257 melanoma 103% | M14 melanoma 105%

O=C(O)c1ccccc1[As](=O)(O)O
inactive: NCI-H23 lung 111% | NCI-H226 lung 101% | NCI-H322M lung 95.8% | HOP-62 NSCLC 101% | NCI-H460 lung 163% | HOP-92 NSCLC 96.6% | NCI-H522 lung 91.2% | A549/ATCC NSCLC 93.8% | 786-0 renal 105% | COLO 205 colon 120% | DU-145 prostate 99.5% | K-562 leukemia 67.7% | MALME-3M melanoma 113% | MDA-MB-231 breast 111% | RXF 393 renal 79.2% | SF-268 CNS 95.1% | SF-295 CNS 98% | SF-539 CNS 149% | UACC-257 melanoma 91.9% | M14 melanoma 103%

O=[As](O)(c1cccc(O)c1)c1cccc(O)c1
inactive: NCI-H23 lung 92.8% | NCI-H226 lung 95.2% | NCI-H322M lung 120% | HOP-62 NSCLC 91.2% | NCI-H460 lung 105% | HOP-92 NSCLC 100% | NCI-H522 lung 92% | A549/ATCC NSCLC 96.7% | 786-0 renal 92.6% | COLO 205 colon 121% | DU-145 prostate 117% | K-562 leukemia 105% | MALME-3M melanoma 140% | MDA-MB-231 breast 112% | RXF 393 renal 119% | SF-268 CNS 111% | SF-295 CNS 117% | SF-539 CNS 96.6% | UACC-257 melanoma 18.8% | M14 melanoma 94.8%

O=C(O)COc1ccc([As](=O)(O)O)cc1[N+](=O)[O-]
inactive: NCI-H23 lung 115% | NCI-H226 lung 107% | NCI-H322M lung 121% | HOP-62 NSCLC 80.9% | NCI-H460 lung 107% | HOP-92 NSCLC 114% | NCI-H522 lung 101% | A549/ATCC NSCLC 113% | 786-0 renal 79.2% | COLO 205 colon 133% | DU-145 prostate 118% | K-562 leukemia 108% | MALME-3M melanoma 108% | MDA-MB-231 breast 107% | RXF 393 renal 111% | SF-268 CNS 109% | SF-295 CNS 113% | SF-539 CNS 99.4% | UACC-257 melanoma 99.1%

O=[As]1(O)c2ccccc2-c2ccccc21
inactive: NCI-H23 lung 88.9% | NCI-H226 lung 94.2% | NCI-H322M lung 134% | HOP-62 NSCLC 78.7% | NCI-H460 lung 105% | HOP-92 NSCLC 108% | NCI-H522 lung 97.7% | A549/ATCC NSCLC 93.9% | 786-0 renal 82.4% | COLO 205 colon 126% | DU-145 prostate 108% | K-562 leukemia 85.5% | MALME-3M melanoma 112% | MDA-MB-231 breast 104% | RXF 393 renal 100% | SF-268 CNS 108% | SF-295 CNS 106% | SF-539 CNS 89.7% | UACC-257 melanoma 99.6%

CCN(CCCl)/N=N/c1nc2nc[nH]c(=O)c2[nH]1
inactive: NCI-H23 lung 92.1% | NCI-H226 lung 105% | NCI-H322M lung 96.4% | HOP-62 NSCLC 89.2% | NCI-H460 lung 113% | HOP-92 NSCLC 97.8% | NCI-H522 lung 98.8% | A549/ATCC NSCLC 93.6% | 786-0 renal 102% | COLO 205 colon 114% | DU-145 prostate 105% | K-562 leukemia 105% | MALME-3M melanoma 97.7% | MDA-MB-231 breast 118% | RXF 393 renal 128% | SF-268 CNS 95.2% | SF-295 CNS 104% | SF-539 CNS 103% | UACC-257 melanoma 96.6% | M14 melanoma 101%

O=c1ccc(Oc2ccc([N+](=O)[O-])cc2[N+](=O)[O-])nn1-c1ccc([N+](=O)[O-])cc1[N+](=O)[O-]
active: NCI-H522 lung -70.5% | 786-0 renal -87.6% | K-562 leukemia -19.1% | MALME-3M melanoma -63.1% | MDA-MB-231 breast -80.1%
inactive: NCI-H23 lung 77.9% | NCI-H226 lung 86% | NCI-H322M lung 99.1% | HOP-62 NSCLC 39.4% | NCI-H460 lung 75% | HOP-92 NSCLC 27.8% | A549/ATCC NSCLC 75.1% | COLO 205 colon 51.3% | DU-145 prostate 74% | RXF 393 renal 75.5% | SF-268 CNS 73.5% | SF-295 CNS 90.7% | SF-539 CNS 16.3% | UACC-257 melanoma 49.6% | M14 melanoma 76%
